Publication PMC7946884
Like-named read-outs stand apart in the source and are kept apart here.

Assays:
[1] = target: chimeric protein kinase PKA-C^DNAJB1 (J-domain of DNAJB1 fused to the catalytic α subunit of PKA) (human (fusion gene found in tumours of FL-HCC patients)) (UniProt P25685)
[2] = target: chimeric protein kinase PKA-C^DNAJB1 (J-domain of DNAJB1 fused to the catalytic α subunit of PKA) (human (fusion gene found in tumours of FL-HCC patients)) (UniProt P25685); remark: listed apart in the source

Kd [1]: 1.1 µM
Kd [2]: 9 µM
Substance: PKI_(5–24), peptide of the endogenous protein kinase inhibitor PKI
